Assay outcomes from PubChem.
Rows were chosen to be rich in hits. Some 16% of all compounds tested hit in one or more screens of this group.
DT40 TDP1 CPT – growth inhibition of DT40 Tdp1-/-;hTDP1 cells with camptothecin (screen for TDP1 inhibitors). chicken DT40 Tdp1-/-;hTDP1 cells + 20 nM CPT, ATP luminescence, 48 h. AID 686979. 420,000 tested, 12% active. Potency, µM (top dose mostly 46.2 µM), actives largely listed as inhibitors; further: nearly all actives have a fitted effect of over 55% in size
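Chicken DT40 Tdp1-/- cells complemented with human TDP1, 400 cells/well, exposed to compounds plus 20 nM camptothecin for at least 48 h at 37 C; viability read as ATP content by CellTiter-Glo luminescence.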
miR-21 reporter – miR-21 reporter, rising signal. HeLa miR-21 FLuc reporter, luciferase, 48 h. Potency, µM (highest dose often 38.3 µM). 340,000 tested, under 10 active. AID 2288; active = well fitted rising curve with a large enough effect; inconclusive = small, poorly fitted or top-dose-only effect; inactive = no such curve, though single readings can be large or run the other way;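 further: miR-21 action dims this reporter so a rising signal means less miR-21 action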
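HeLa cells endogenously expressing miR-21, stably carrying CMV-driven firefly luciferase with a downstream miR-21 binding site, 2000 cells/well. Titrations up to approximately 40 uM, 48 hours; luciferase luminescence read.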
uPA generation – cell surface uPA generation inhibition; cell surface uPA generation assay, qHTS; Potency, µM (doses to about 38.3 µM), most hits filed as inhibitors; 330,000 tested, 0.31% active; AID 540303; active means well fitted inhibition curve with a large enough effect; inconclusive means small, poorly fitted or top-dose-only effect; inactive means no such curve, though single readings can be large or run the other way; tested in mouse RAW 264.7 cells; further: nearly all actives have a fitted effect of over 55% in size
TDP1 inh – inhibitors of human tyrosyl-DNA phosphodiesterase TDP1 | Q9NUW8 | recombinant TDP1, AlphaScreen DNA substrate cleavage | Potency, µM (series often up to 130 µM), usual class: inhibitors | 350,000 tested, 0.28% active | AID 485290; further: nearly all actives have a fitted effect of over 40% in size
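Signal: AlphaScreen proximity between streptavidin donor and anti-FITC acceptor beads on intact substrate. Reaction: Tdp1 1 nM, substrate 15 nM final, 5 min RT after 15 min compound preincubation.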
DT40 TDP1 no CPT – qHTS for Inhibitors of human tyrosyl-DNA phosphodiesterase 1 (TDP1): qHTS in cells in absence of CPT; Potency, µM (series often up to 46.2 µM), hits mostly inhibitors; DT40 Tdp1-/- hTDP1 cells, no CPT, ATP luminescence, 48 h; 420,000 tested, 15% active; further: nearly all actives have a fitted effect of over 55% in size
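Cells were dispensed at 400 per well, compounds added by pin tool, plates incubated ≥48 hr at 37 °C, then CellTiter-Glo added for 30 min at room temperature before luminescence reading. Line: DT40 Tdp1-/- complemented with hTDP1; camptothecin omitted.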
Each line names hits and unclear results; the compound was inactive in the other large screens. Unless noted, the call rests on the fitted dose curve; in most records, active means well fitted curve in the direction sought with a large enough effect; inconclusive means small, poorly fitted or top-dose-only effect, or another doubt; inactive means no such curve, though single readings can be large; an effect the other way counts as inactive or inconclusive.

Cc1onc(-c2c(F)cccc2Cl)c1C(=O)Nc1nccs1	DT40 TDP1 no CPT inconclusive
Cc1onc(-c2c(F)cccc2Cl)c1C(=O)Nc1nnc(C(F)(F)F)s1	DT40 TDP1 CPT 12µM, DT40 TDP1 no CPT 15µM
O=C(Nc1nnc(C(F)(F)F)s1)c1ccc(Br)s1	DT40 TDP1 CPT 13µM, DT40 TDP1 no CPT 15µM
CCSc1nnc(NC(=O)c2ccc(Br)s2)s1	DT40 TDP1 no CPT inconclusive (no result: uPA generation)
Cc1ccc([N+](=O)[O-])cc1N=Nc1c(-c2ccc([N+](=O)[O-])cc2)[nH]n(C(N)=S)c1=O	DT40 TDP1 CPT 8.2µM, miR-21 reporter inconclusive, DT40 TDP1 no CPT 2.9µM
CC(=O)Nc1ccc(S(=O)(=O)NC(C)c2nc(-c3ccccc3)no2)cc1 (configuration not stated)	none
Cc1ccc(-c2noc(C(C)NC(=O)c3ccco3)n2)cc1 (configuration not stated)	DT40 TDP1 CPT 16µM, DT40 TDP1 no CPT 12µM (no result: uPA generation)
CC(NC(=O)c1ccco1)c1nc(-c2ccc(C(C)(C)C)cc2)no1 (configuration not stated)	DT40 TDP1 CPT 21µM, DT40 TDP1 no CPT 21µM
Cc1ccc(-c2noc(C(C)NS(=O)(=O)c3ccc(C)cc3)n2)cc1 (configuration not stated)	DT40 TDP1 CPT inconclusive, DT40 TDP1 no CPT 21µM (no result: uPA generation)
Cc1n[nH]c(=S)n1-c1cccc(Cl)c1	none
Cc1cccnc1NC(=O)NC(=O)c1ccc(C(C)(C)C)s1	DT40 TDP1 CPT inconclusive, DT40 TDP1 no CPT 16µM
CC1=C(C(=O)N(C(C)C)C(C)C)CC(CC(=O)NC2CCCC2)C(=O)N1Cc1ccc(F)cc1 (configuration not stated)	none (no result: miR-21 reporter, uPA generation, TDP1 inh)
Cc1ccc(NC(=O)c2cc(S(=O)(=O)N3CCCCCC3)ccc2F)cc1F	DT40 TDP1 CPT 8.2µM, DT40 TDP1 no CPT inconclusive (no result: uPA generation)
COc1ccccc1NC(=O)c1cc(S(=O)(=O)N2CCCCCC2)ccc1F	DT40 TDP1 CPT inconclusive, DT40 TDP1 no CPT inconclusive
O=C(Nc1ccc(Cl)cc1F)c1cc(S(=O)(=O)N2CCCCC2)ccc1F	none
Cc1ccc(C)c(NC(=O)c2cc(S(=O)(=O)N3CCCCCC3)ccc2F)c1	DT40 TDP1 CPT 16µM, DT40 TDP1 no CPT inconclusive (no result: uPA generation)
Cc1cc(C)cc(NC(=O)c2cc(S(=O)(=O)N3CCCC3)ccc2F)c1	DT40 TDP1 CPT inconclusive, DT40 TDP1 no CPT 21µM (no result: uPA generation)
COc1ccc(-n2c(=O)c3ccc(C(=O)NCc4ccc(C)cc4)cc3n(Cc3cccc(Cl)c3)c2=O)cc1	DT40 TDP1 CPT inconclusive, DT40 TDP1 no CPT inconclusive (no result: uPA generation)
Cc1cccc(C(=O)Nc2ccc(OCc3cc(=O)n4c5c(sc4n3)CCCC5)cc2)c1	none (no result: uPA generation)
C=CCN(C(=O)c1ccccc1)C1CCS(=O)(=O)C1 (configuration not stated)	none
CCN(CC)Cc1c(O)ccc2c([N+](=O)[O-])c(C)n(-c3ccc(OC)cc3)c12	DT40 TDP1 CPT 7.3µM, DT40 TDP1 no CPT 16µM
COc1cc(OC)cc(C(=O)NCCNC(=O)c2ccccn2)c1	none (no result: TDP1 inh)
CCn1c(SCc2ccc(Cl)cc2)nnc1-c1ccccc1	DT40 TDP1 CPT inconclusive, DT40 TDP1 no CPT inconclusive
Cc1ccc2c(c1)CCCN2C(=O)CCc1nc2ccccc2c(=O)[nH]1	DT40 TDP1 CPT 0.46µM, DT40 TDP1 no CPT inconclusive (no result: miR-21 reporter)
Cc1ccc(N2CCN(C(=O)CCc3nc4ccccc4[nH]3)CC2)c(C)c1	DT40 TDP1 CPT 18µM, DT40 TDP1 no CPT inconclusive
O=C(CCc1nc2ccccc2c(=O)[nH]1)OCC(=O)N1CCc2ccccc21	none
Cc1ccc(C)c(N2C(=O)N(Cc3cc(=O)n4ccccc4n3)c3ccccc3S2(=O)=O)c1	DT40 TDP1 CPT inconclusive, DT40 TDP1 no CPT inconclusive (no result: uPA generation)
Cn1c(=O)[nH]c(=O)c2c1nc(SCC(O)CO)n2CCCc1ccccc1 (configuration not stated)	DT40 TDP1 no CPT inconclusive
Cc1ccnc(N/C=C(\C#N)c2nc(-c3cccc(Br)c3)cs2)c1	DT40 TDP1 CPT 21µM, DT40 TDP1 no CPT 18µM
O=C1CCCCc2sc(Br)c([N+](=O)[O-])c2N1	DT40 TDP1 CPT 12µM, miR-21 reporter inconclusive, DT40 TDP1 no CPT 12µM (no result: TDP1 inh)
